Results on one compound are retold here after article PMC9610285, “Polymorphism of Drug Transporters, Rather Than Metabolizing Enzymes, Conditions the Pharmacokinetics of Rasagiline” (Pharmaceutics, 2022).

The conditions of this data set: SLC22A1*5 (rs34059508) *1/*5, n=5; 1 mg single oral dose, fasting. As to the method:
The data used in this work were obtained from four bioequivalence clinical trials conducted at the Clinical Trials Unit of the Hospital Universitario de La Princesa (UECHUP) (EUDRA-CT IDs: 2012-004433-17, 2013-002159-14, 2014-001123-77 and 2021-000315-23). […] The reference formulation (R) in all cases was Azilect® 1 mg tablets (TEVA Pharmaceuticals Europe B.V.), which was compared against different test formulations (T), all of them 1 mg tablets, except in clinical trial 3, whose test formulation was orodispersible 1 mg. The four bioequivalence trials had two periods and two sequences (TR and RT). […]
In each period, the drug was administered under fasting conditions, which were maintained until 5 h after drug administration. […] The latter was validated according to European regulations for bioequivalence assessment, with a lower limit of quantification (LLOQ) of 10 pg/mL and a calibration range of 10–10,000 pg/mL.
Pharmacokinetic parameters were calculated with WinNonlin Professional (Scientific Consulting, Inc., Cary, NC, USA) following a non-compartmental model. […] The extrapolation to infinity (AUC0-∞) was determined by the sum of two partial AUCs: AUCt-∞ calculated by the ratio Ct/k, where Ct is the last detectable concentration and k the elimination slope; plus AUC0-t. Cmax and tmax were directly obtained from the plasma time-concentration curves. t1/2 was calculated as Ln2/k. […]

Regarding `C#CCN[C@@H]1CCc2ccccc21` [rasagiline, Rasagiline], the Vd/F (in general, the apparent distribution volume after extravascular dosing) is given as 15.36 ± 4.85 L/kg.
